Test results reported in BindingDB's records for doi:10.1124/jpet.105.087809 (Universit&Aagrove, 2005).

Protein sequences, listed by entry. Tags and fused reporters are not part of them.
UniProt P35368, whole entry: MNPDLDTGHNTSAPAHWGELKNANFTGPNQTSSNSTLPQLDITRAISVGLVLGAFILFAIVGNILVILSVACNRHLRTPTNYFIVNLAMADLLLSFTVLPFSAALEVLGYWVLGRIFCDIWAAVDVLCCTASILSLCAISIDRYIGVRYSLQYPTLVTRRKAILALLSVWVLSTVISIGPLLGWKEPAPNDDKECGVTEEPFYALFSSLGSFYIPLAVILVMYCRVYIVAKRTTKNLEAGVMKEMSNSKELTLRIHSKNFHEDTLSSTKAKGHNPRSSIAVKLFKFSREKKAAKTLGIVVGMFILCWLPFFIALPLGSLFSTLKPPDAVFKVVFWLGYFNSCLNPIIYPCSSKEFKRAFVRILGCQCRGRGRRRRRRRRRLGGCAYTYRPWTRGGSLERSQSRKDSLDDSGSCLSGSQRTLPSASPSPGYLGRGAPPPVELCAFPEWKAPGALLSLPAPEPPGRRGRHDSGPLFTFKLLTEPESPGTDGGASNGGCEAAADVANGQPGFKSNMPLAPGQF

Molecular target: Alpha-1B adrenergic receptor (Homo sapiens, UniProt P35368)

Molecule `O=C(CCCN1CCC2(CC1)C(=O)NCN2c1ccccc1)c1ccc(F)cc1` [8-[4-(4-fluorophenyl)-4-oxidanylidene-butyl]-1-phenyl-1,3,8-triazaspiro[4.5]decan-4-one] has a Ki of 3.09 nM.
